activity, negative = inhibition data for 50 molecules are collected here from PubChem BioAssay AID588579 (National Center for Advancing Translational Sciences (NCATS), 2011).

Protein sequences, listed by entry. Tags and fused reporters are not part of them. Lines headed by an entry give the natural chain unless they say otherwise; changes in a name come on top.
UniProt Q9UBT6: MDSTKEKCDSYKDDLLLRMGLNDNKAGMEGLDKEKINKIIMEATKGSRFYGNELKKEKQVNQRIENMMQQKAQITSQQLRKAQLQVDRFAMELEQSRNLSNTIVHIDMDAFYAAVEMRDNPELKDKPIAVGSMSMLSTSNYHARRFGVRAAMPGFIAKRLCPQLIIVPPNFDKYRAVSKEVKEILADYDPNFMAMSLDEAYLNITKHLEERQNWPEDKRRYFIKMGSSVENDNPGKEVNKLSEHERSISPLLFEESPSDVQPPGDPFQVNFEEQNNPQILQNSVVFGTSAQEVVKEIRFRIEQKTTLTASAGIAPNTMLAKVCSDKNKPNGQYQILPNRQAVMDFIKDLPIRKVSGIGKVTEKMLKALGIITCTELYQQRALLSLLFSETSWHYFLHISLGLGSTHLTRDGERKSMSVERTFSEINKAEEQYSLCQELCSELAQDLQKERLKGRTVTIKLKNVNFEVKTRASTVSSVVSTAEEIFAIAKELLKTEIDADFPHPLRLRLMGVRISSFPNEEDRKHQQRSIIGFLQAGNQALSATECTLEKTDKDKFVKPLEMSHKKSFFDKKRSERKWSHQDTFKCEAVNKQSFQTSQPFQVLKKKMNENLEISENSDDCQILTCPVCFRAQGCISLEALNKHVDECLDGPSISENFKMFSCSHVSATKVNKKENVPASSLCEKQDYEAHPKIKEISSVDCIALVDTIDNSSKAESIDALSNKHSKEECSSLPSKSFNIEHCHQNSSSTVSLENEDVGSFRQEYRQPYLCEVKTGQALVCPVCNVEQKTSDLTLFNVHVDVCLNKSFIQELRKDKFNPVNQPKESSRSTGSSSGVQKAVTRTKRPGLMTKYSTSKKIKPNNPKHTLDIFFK

This is a selection; strong and weak results do not stand in their true shares. Inconclusive results are not listed. Active and inactive are the calls of the source. The call rests on the fitted dose curve; in most records, active means well fitted inhibition curve with a large enough effect; inconclusive means small, poorly fitted or top-dose-only effect, or another doubt; inactive means no such curve, though single readings can be large or run the other way.

The test concerns the target DNA polymerase kappa (Homo sapiens) (UniProt Q9UBT6). Put plainly: qHTS for Inhibitors of Polymerase Kappa. The conditions noted are these: purified Pol kappa, fluorescent DNA synthesis assay, 10 min. In outline: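 Pol kappa 10 nM + cpd, 15 min RT; start w/ substrate 50 nM final; fluorescence kinetic read, 0 and 10 min. Neg ctrl: buffer, no enzyme.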
On the % scale 0 is the no-effect control and ±100 the full control effect.

Regarding `CC(=O)C1=CCCC2CCC1N2` (configuration not stated), the activity, negative = inhibition is inactive: 4.49% (at 19.4 µM (top of the series)) and inactive: -12.1% (at 60.1 µM (top of the series)).
On to `CN(C)C(=O)OCCc1n(C)cc[n+]1C`, for which the activity, negative = inhibition (at 107 µM (top of the series)) was inactive: -2.47%.
Same read-out and setting: the value for `COc1cc([N+](=O)[O-])c([N+](=O)[O-])cc1OC` was inactive: 13%.
Same read-out and setting: the value for `O=P1(N(CCCl)CCCl)OCCCS1` (configuration not stated) was inactive: -17%.
Same read-out and setting: the same measure for `Cc1cc(C=O)ccc1N(CCCl)CCCl`: inactive: -23%.
Regarding `O=C(Nc1cc([As](=O)(O)O)ccc1O)c1ccccc1`, the activity, negative = inhibition (at 107 µM (top of the series)) was inactive: -8.32%.
Still for that read-out and setting: the same measure for `O=P(/N=c1/nc(-c2ccccc2)n(-c2ccccc2)s1)(Nc1ccccc1)Nc1ccccc1`: inactive: -10.4%; for `CC(C)(C)C(=O)NC(Sc1ccncn1)C(Cl)(Cl)Cl` (configuration not stated): inactive: 12.2%.
Turning to `O=C(O)CNc1ccc([As](=O)(O)O)cc1`, the activity, negative = inhibition (at 107 µM (top of the series)) was inactive: -6.23%.
On the same count and under the same terms, the same measure for `O=[N+]([O-])c1cccc(NC2=NCC(CBr)S2)c1` (configuration not stated): inactive: 4.19%; for `COC(=O)C1(C)COP(=O)(Nc2ccccc2)OC1` (configuration not stated): inactive: -9.69%; for `CN(C)C1(CNC(=O)c2ccc(Cl)c(S(N)(=O)=O)c2)CCCCC1`: inactive: -3.99%.
The same measure, in the same setting: the value for `O=P(Nc1ccccn1)(c1ccc(Br)cc1)c1ccc(Br)cc1` was inactive: 2.86%.
For the molecule `CN(C(=O)Cc1ccccc1)[C@H]1CC[C@@]2(CCCO2)C[C@@H]1N1CCCC1`, the activity, negative = inhibition (at 19.4 µM (top of the series)) was inactive: 3.15%.
For the molecule `C[C@H]1OP(=O)(Oc2ccccc2)[C@H](O)[C@H](O)[C@H]1N=[N+]=[N-]` (some centres not stated), under “at 107 µM (top of the series)”, the activity, negative = inhibition is inactive: 13.5%.
Still for that read-out and setting: the same measure for `O=P(Nc1nc2ccccc2s1)(c1ccccc1)c1ccccc1`: inactive: -14.4%.
For `O=[As](O)(c1ccccc1)c1ccc(O)cc1`, the activity, negative = inhibition (at 107 µM (top of the series)) was inactive: -3.29%.
Still for that read-out and setting: the same measure for `CC(=O)NC(SC(=S)N(C)C)C(Cl)(Cl)Cl` (configuration not stated): inactive: -11.9%.
On the same count and under the same terms, the value for `O=[N+]([O-])c1ccc(O)c(/C=N/Nc2ccc([N+](=O)[O-])cc2[N+](=O)[O-])c1` was inactive: -12.8%; that for `O=C(OC1CN2CCC1CC2)c1cccc(Cl)c1` (configuration not stated) was inactive: -6.85%; that for `Nc1ccc([As](=O)(O)c2ccc([N+](=O)[O-])cc2)cc1` was inactive: -7.94%.
Still for that read-out and setting: the same measure for `O=P(Nc1nccs1)(c1ccccc1)c1ccccc1`: inactive: -3.3%; for `CC(C)C(=O)NC(Sc1ccccc1)C(Cl)(Cl)Cl` (configuration not stated): inactive: -1.98%.
Consider `CCC(C)(OOC(C)(C)C)OOC(C)(C)C`, for which, under “at 60.1 µM (top of the series)”, the activity, negative = inhibition is inactive: 16.9%.
As to `COc1cccc([N+](=O)[O-])c1[N+](=O)[O-]`, the activity, negative = inhibition (at 107 µM (top of the series)) is inactive: -17%.
Same read-out and setting: the same measure for `CCOc1ccc(C2=NCC(CBr)S2)cc1` (configuration not stated): inactive: -22.4%; for `O=P1(Nc2nc3ccc(Cl)cc3s2)COc2ccccc2O1` (configuration not stated): inactive: -3.72%; for `CC(C)(C)C(=O)NC(Sc1ccccc1)C(Cl)(Cl)Cl` (configuration not stated): inactive: -7.18%.
The same measure, in the same setting: the same measure for `CCc1cc(O)c([N+](=O)[O-])c(C)c1[N+](=O)[O-]`: inactive: -13.8%; for `C[C@@H]1C=CCP(=O)(Oc2ccccc2)O1` (some centres not stated): inactive: -15.5%.
Same read-out and setting: the same measure for `C[C@H]1OP(=O)(Oc2ccccc2)C[C@@H]2O[C@@H]21` (some centres not stated): inactive: -21.5%; for `Cc1ccccc1CN(C)C(=O)COC(=O)C(O)(c1ccccc1)c1ccccc1`: inactive: -21.9%.
Turning to `COC(=O)C1(C)COP(=O)(NCc2ccccc2)OC1` (configuration not stated), the activity, negative = inhibition (at 107 µM (top of the series)) was inactive: -10.2%.
On the same count and under the same terms, the same measure for `N#C/C(=C\c1ccc(N(CCBr)CCBr)cc1)C(N)=O`: inactive: -8.23%; for `CC(=O)c1ccc(N2CC2c2ccncc2)cc1` (configuration not stated): inactive: 3.12%.
Same read-out and setting: the same measure for `CC(=O)Nc1ccc(Oc2c([N+](=O)[O-])cc([N+](=O)[O-])cc2[N+](=O)[O-])cc1`: inactive: 3.31%; for `CC(=O)Nc1ccc([As](=O)(O)O)c(O)c1`: inactive: -8.41%.
Same read-out and setting: the same measure for `Cc1ccc(NP(=O)(Oc2cccc(C)c2)Oc2cccc(C)c2)nc1`: inactive: 2.39%; for `c1ccc(-c2nn[nH]n2)c(-c2nn[nH]n2)c1`: inactive: -10.8%.
With `O=C(NC1CCS(=O)(=O)C1)NP(=S)(Oc1ccccc1)Oc1ccccc1` (configuration not stated), the activity, negative = inhibition (at 107 µM (top of the series)) is inactive: -8.14%.
Regarding `O=P1(N(CCCl)CCCl)OCCC2CCCCN21` (configuration not stated), the activity, negative = inhibition (at 107 µM (top of the series)) was inactive: -0.571%.
Take `CCC(=O)N1C2C3N(C(=O)CC)C1C1N(C(=O)CC)C(C(N1C(=O)CC)N3C(=O)CC)N2C(=O)CC`: the activity, negative = inhibition (at 107 µM (top of the series)) was inactive: 6.45%.
Consider `O=C(OC1CN2CCC1CC2)c1ccccc1` (configuration not stated), for which the activity, negative = inhibition (at 19.4 µM (top of the series)) was inactive: 7.72% and the activity, negative = inhibition (at 107 µM (top of the series)) was inactive: -4.55%.
As for `CN(C(=O)Cc1ccc(Cl)c(Cl)c1)[C@@H]1CCCC[C@@H]1N1CCCC1`, the activity, negative = inhibition (at 60.1 µM (top of the series)) is inactive: -15%.
For the molecule `Cc1ccc(OP(=O)(Nc2ccccn2)Oc2ccc(C)cc2)cc1`, where the note is “at 107 µM (top of the series)”, the activity, negative = inhibition is inactive: -7.89%.
The same measure, in the same setting: the value for `CC(=O)NC(SC(=S)N(CC(C)C)CC(C)C)C(Cl)(Cl)Cl` (configuration not stated) was inactive: -8.64%.
On the same count and under the same terms, the same measure for `COC(=O)c1cc2c(s1)N=C(c1ccccc1)N(C)P2(=O)N1CCOCC1` (configuration not stated): inactive: 0.477%; for `CN(C)C(=O)Oc1noc2ccccc12`: inactive: -3.3%.
The same measure, in the same setting: the same measure for `Cc1ccccc1OP(=O)(Nc1ccccn1)Oc1ccccc1C`: inactive: -2%; for `CC(NC(=O)COC(=O)C(O)(c1ccccc1)c1ccccc1)c1ccccc1` (configuration not stated): inactive: -11.1%.
